Assay results taken from patent US12201592B2, “Combinations of IRS/STAT3 dual modulators and anti-cancer agents for treating cancer” (TYRNOVO LTD., priority 2015, dated 2025).

How the values were obtained:
Assay type in all cases: in vivo, NodScid mice
[1] = system: Adnexal adeno metastatic carcinoma biopsy; experiment: PDX efficacy study with Cetuximab (Example 11)
Protocol: Experimental system: Patient-derived xenograft (PDX) of human primary Adnexal adeno metastatic carcinoma biopsy subcutaneous implanted into NodScid mice.
• Biopsy: fresh human Adnexal adeno carcinoma metastatic (skin) biopsy (sample ID: RA-162) • Implantation of tumor biopsy grafts (P3) into NodScid mice for efficacy study: When tumors (P2) reached average size of about 1500 mm^3, tumor tissue was injected into 50 male NodScid mice, generated by in-house breeding in the animal facilities of Bar Ilan University, at the same procedure described in example 1. • 19 mice whose tumors reached average size of about 90 mm^3 were included in the study.
The mice were divided into 4 groups and the following treatments initiated (day 0): • Control: Vehicle of NT219 (20% HPbCD) 50 μl IV twice a week—5 mice • Compound D 70 mg/kg IV twice a week—6 mice • Cetuximab 1 mg/mouse IP twice a week—5 mice • Cetuximab (1 mg/mouse IP)+Compound D (70 mg/kg IV), twice a week—3 mice
(§1) In the combination group Cetuximab was administered ˜4 hr following Compound D.

[2] = system: colon metastatic carcinoma biopsy; experiment: PDX efficacy study with Cetuximab and FOLFIRI (Example 12); conditions: start ~110 mm^3; 14 days
Protocol: Experimental system: Patient-derived xenograft (PDX) of human primary colon metastatic carcinoma biopsy subcutaneous implanted into NodScid mice.
• Biopsy: fresh human colon cancer biopsy (sample ID: RA-149) • Implantation of tumor biopsy grafts (P4) into NodScid mice for efficacy study: When tumors (P3) reached average size of about 1500 mm^3, tumor tissue was injected into male NodScid mice, generated by in-house breeding in the animal facilities of Bar Ilan University, at the same procedure described in example 1. • 36 mice whose tumors reached average size of about 110 mm^3 were included in the study.
The mice were divided into 7 groups and the following treatments initiated (day 0): • Control: Vehicle of NT219 (20% HPbCD) 50 μl IV twice a week—5 mice • Compound D 70 mg/kg IV twice a week—5 mice • Cetuximab 1 mg/mouse IP twice a week—5 mice • FOLFIRI IP 5 times a week—5 mice • Cetuximab 1 mg/mouse IP twice a week+FOLFIRI IP 5 times a week—5 mice • Cetuximab 1 mg/mouse IP twice a week+FOLFIRI IP 5 times a week+Compound D 70 mg/kg IV twice a week—6 mice
as §1

HNSCC tumor biopsy = experiment: PDX efficacy study, tumor recurrence after Cetuximab±Afatinib (Example 7)
Protocol: Experimental system: Patient-derived xenograft (PDX) of HNSCC tumor biopsy subcutaneous implanted into NodScid mice.
Treatment groups included: • 1. Vehicle-control: Vehicle (0.5% Hydroxymethyl-cellulose, 0.4% Tween-80) 200 μl PO (5 times/week, qd). • 2. […] Cetuximab 1 mg/mouse IP (2 times/week). • 4. […] Cetuximab 1 mg/mouse IP (2 times/week)+Afatinib 25 mg/kg in vehicle PO (5 times/week) • 6.

With Cetuximab: EGFR antibody the “average tumor volume at the end of the experiment” value ([1]; day34) was > 500 mm^3, the tumor response ([1]; start ~90 mm^3, Cetuximab 1 mg/mouse IP, Compound D 70 mg/kg IV, twice a week) was “transient tumor growth attenuation followed by acquired resistance to Cetuximab” and the “effect on tumor growth” value [2] was “No effect on tumor growth”. The “tumor response while on treatment” value (HNSCC tumor biopsy; 9 days of treatment, start ~113 mm^3) was “dramatic tumor regression in all mice” and the “start of tumor re-growth following cease of treatments” value (HNSCC tumor biopsy; treatment for 9 days only) was “Eight days following cease of treatments”.
